Drawing on ChEMBL document CHEMBL3862041, “Discovery of Novel Bruton's Tyrosine Kinase (BTK) Inhibitors Bearing a N,9-Diphenyl-9H-purin-2-amine Scaffold” (ACS Med Chem Lett, 2016), this text covers IC50 for one compound.

Amino acid sequences for entries named in this document (tags omitted). A change or cut given only in a name is not applied to a line headed by its entry.
UniProt Q06187: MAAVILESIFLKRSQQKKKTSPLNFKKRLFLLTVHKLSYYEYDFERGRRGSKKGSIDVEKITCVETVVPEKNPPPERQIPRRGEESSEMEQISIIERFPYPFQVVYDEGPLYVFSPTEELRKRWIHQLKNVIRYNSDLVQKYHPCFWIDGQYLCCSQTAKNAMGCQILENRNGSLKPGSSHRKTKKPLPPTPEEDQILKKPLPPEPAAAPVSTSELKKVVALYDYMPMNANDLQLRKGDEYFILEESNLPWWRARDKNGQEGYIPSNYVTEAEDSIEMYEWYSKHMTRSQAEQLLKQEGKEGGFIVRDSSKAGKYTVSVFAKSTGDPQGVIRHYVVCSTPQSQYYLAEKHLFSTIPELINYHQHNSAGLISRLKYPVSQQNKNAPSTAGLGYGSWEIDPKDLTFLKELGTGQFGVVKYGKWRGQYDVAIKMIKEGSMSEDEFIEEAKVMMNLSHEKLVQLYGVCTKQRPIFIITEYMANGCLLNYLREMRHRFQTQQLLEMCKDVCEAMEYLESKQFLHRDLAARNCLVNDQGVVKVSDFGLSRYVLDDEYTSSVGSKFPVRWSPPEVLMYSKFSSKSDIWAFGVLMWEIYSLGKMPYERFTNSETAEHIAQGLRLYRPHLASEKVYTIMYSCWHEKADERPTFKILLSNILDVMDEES

The term pIC50 denotes the IC50 on a negative log10 scale, so that one unit is a factor of ten.

This experiment has as its target Tyrosine-protein kinase BTK (Homo sapiens, UniProt Q06187). The experiment in a line: Inhibition of recombinant human N-terminal His-tagged BTK expressed in baculovirus infected sf9 cells using poly(4:1 Glu,Tyr) as substrate by ADP-Glo kinase assay. (In general: ADP-Glo turns the ADP formed in a reaction into a luminescent signal.)

Structures are written as SMILES. pIC50: −log10 of the molar value.

For the compound `C=CC(=O)Nc1cccc(Nc2nc(Nc3ccc(OCCOC)cc3)ncc2F)c1` [SPEBRUTINIB], the negative logarithm of the IC50 (pIC50) was 9.22.
